In patent US20070265212A1, “Drug Transport and Delivery System” (LUZERN ACQUISITION CORP., C/O STRELA DEVELOPMENT, priority 2002, published 2007):

How the values were obtained:
red blood cells = assay: Metabolite formation in the presence of red blood cells (HPLC, mass spectrometry); format: in vitro ADME; conditions: 1 ml of blood containing 20 μg/ml of the ADM derivative, 5×10^9 RBC
Protocol: (§1) These metabolites were identified by HPLC and mass spectrometry to be m-L-Sarcolysin, prolyl-m-L-sarcolysin, fluoro-phenylalanine and prolyl-m-sarcolysyl-p-fluoro-phenylalanin.
(§2) According to hitherto is available results this metabolite is most probably ADM linked to one Phe moiety. This was done with 1 ml of blood containing 20 μg/ml of the ADM derivative as well as 5×10^9 RBC compared to only 5×10^6 melanoma cells.

human melanoma cells = assay: Metabolite formation in the presence of human melanoma cells (HPLC, mass spectrometry); format: in vitro ADME; conditions: 5×10^6 melanoma cells; metabolite most probably ADM linked to one Phe moiety
Protocol: as §1, §2

## Prolyl-adriamycin-linked-phenylalanyl-p-fluoro-phenylalanyl [PFPP-ADM]
Red blood cells
  HPLC detectable metabolite in the presence of red blood cells: no HPLC detectable metabolite
Human melanoma cells
  metabolite generated in the presence of human melanoma cells: one major single metabolite
